Results taken from US20260384421A1, “NOVEL COMPOUNDS THAT CAN BE USED AS THERAPEUTIC AGENTS” (published 2026).
Read-outs that look alike come from different tables or passages of the source.

How the values were obtained:
[1] = tested on: MDA-MB-231 cells; experiment: alamarBlue proliferation assay with MDA-MB-231 cells (glucose-free Leibovitz's L-15 medium)
[2] = tested on: ZR-75-30 cells; experiment: alamarBlue proliferation assay with ZR-75-30 cells; details: read-out: Activity on ZR-75-30 (IC50), day 5
Procedure: (§1) These hyperproliferative processes can be benign or malignant and include hyperplasia, neoplasia, cancer and pre-cancerous lesions, and metastases. […] To this end, according cells were seeded into 96-well plates (CORNING #3598) suitable for fluorescence assays at following initial cell numbers: 1000 cells per well for HPEK; 3000 cells per well for MDA-MB-231, 8000 cells per well for ZR-75-30, 1500 cells per well for HCC-1395, 1500 cells per well for HCC-1937, 3000 cells per well for T-47D, 1500 cells per well for JURKAT, 5000 cells per well for RPMI-8402, 9000 cells per well for LOUCY, 1500 cells per well for TANQUE, 9000 cells per well for REC-1, 1000 cells per well for HL-60, 1000 cells per well for NB-4, 9000 cells per well for TT, 2000 cells per well for HeLa, 2000 cells per well for 23132/87, 9000 cells per well for SW-948, 700 cells per well for HCT-116, 1500 cells per well for BHY, 700 cells per well for A-431, 1500 cells per well for HEP-G2, 500 cells per well for NCI-H460, 1000 cells per well for A-549, 1500 cells per well for PANC-1, 2500 cells per well for U-87 MG, 700 cells per well for A-375, 1500 cells per well for RVH-421, 2000 cells per well for SW-1353, 500 cells per well for C2C12, 500 cells per well for LL/2, and 3000 cells per well for CF21.T. In a volume of 90 μL per well of culture medium the cells were treated with compounds at indicated final concentrations by adding 10 μL per well of 10× compound working solutions from 1:100 pre-diluted 1000× compound DMSO stock-solutions in H2O (Water For Injection, WFI, Fisher Scientific, Gibco™ #A12873) or with the empty carrier DMSO (AppliChem, #A3672) at 0.1% v/v as control yielding a final volume of 100 μL per well. […] The readout was taken with a multi-well plate-reader (Tecan Spark®) in the fluorescence mode with applying a filter for excitation at 560 nm (band width 10 nm) and for emission at 590 nm (band width 10 nm). […]

[3] = tested on: HCC-1395 cells; experiment: alamarBlue proliferation assay with HCC-1395 cells; details: read-out: Activity on HCC-1395 (IC50), day 5
Excerpt: (§2) These hyperproliferative processes can be benign or malignant and include hyperplasia, neoplasia, cancer and pre-cancerous lesions, and metastases. The antiproliferative activities of compounds falling under general formula (I) were investigated on human primary epidermal keratinocytes (HPEK) and human, murine and canine cell lines derived from hyperproliferative tissue or different cancer types, including MDA-MB-231, ZR-75-30, HCC-1395, HCC-1937, and T-47D all originating from cancer of the breast, JURKAT, RPMI-8402, LOUCY, TANQUE, REC-1, HL-60, NB-4 all originating from different types of blood cancer including lymphoma and leukemia of T-cells, B-cells and myeloid cells, TT originating from cancer of the neuroendocrine system, HeLa originating from cancer of the cervix, 23132/87, SW-948, and HCT-116 all originating from cancer of the gastrointestinal tract including stomach and colon, BHY originating from cancer of the mucosal epithelium, A-431 originating from cancer of the skin, HEP-G2 originating from cancer of the liver, NCI-H460 and A-549 both originating from cancer of the lung, PANC-1 originating from cancer of the pancreas, U-87 MG originating from cancer of the brain, A-375 and RVH-421 both originating from cancer of melanocytes, SW-1353 originating from cancer of bone-derived chondrocytes, C2C12 a mouse cell line originating from hyperproliferative muscle progenitor cells, LL/2 a mouse cell line originating from cancer of the lung, CF21.T a dog cell line originating from cancer of the connective tissue. To this end, according cells were seeded into 96-well plates (CORNING #3598) suitable for fluorescence assays at following initial cell numbers: 1000 cells per well for HPEK; 3000 cells per well for MDA-MB-231, 8000 cells per well for ZR-75-30, 1500 cells per well for HCC-1395, 1500 cells per well for HCC-1937, 3000 cells per well for T-47D, 1500 cells per well for JURKAT, 5000 cells per well for RPMI-8402, 9000 cells per well for LOUCY, 1500 cells per well for TANQUE, 9000 cells per well for REC-1, 1000 cells per well for HL-60, 1000 cells per well for NB-4, 9000 cells per well for TT, 2000 cells per well for HeLa, 2000 cells per well for 23132/87, 9000 cells per well for SW-948, 700 cells per well for HCT-116, 1500 cells per well for BHY, 700 cells per well for A-431, 1500 cells per well for HEP-G2, 500 cells per well for NCI-H460, 1000 cells per well for A-549, 1500 cells per well for PANC-1, 2500 cells per well for U-87 MG, 700 cells per well for A-375, 1500 cells per well for RVH-421, 2000 cells per well for SW-1353, 500 cells per well for C2C12, 500 cells per well for LL/2, and 3000 cells per well for CF21.T. In a volume of 90 μL per well of culture medium the cells were treated with compounds at indicated final concentrations by adding 10 μL per well of 10× compound working solutions from 1:100 pre-diluted 1000× compound DMSO stock-solutions in H2O (Water For Injection, WFI, Fisher Scientific, Gibco™ #A12873) or with the empty carrier DMSO (AppliChem, #A3672) at 0.1% v/v as control yielding a final volume of 100 μL per well. At day 5 after starting the treatments the cells were subjected to the alamarBlue® Proliferation Assay (Bio-Rad Serotec GmbH, BUF012B) according to the protocol of the manufacturer. The readout was taken with a multi-well plate-reader (Tecan Spark®) in the fluorescence mode with applying a filter for excitation at 560 nm (band width 10 nm) and for emission at 590 nm (band width 10 nm). Treatment for maximum proliferation inhibition with the commercial cytotoxic compound (S)-(+)-camptothecin (Fluorochem #M01564) at a concentration of 10 μM was included on each plate for assay quality control. Some of the test compounds of the present invention may have been obtained and applied as their salt forms.
(§3) The assays were performed in duplicate or more replicates of independent single experiments each containing a three- to six-fold replicate for every condition. […]

[4] = tested on: A-431 cells; experiment: alamarBlue proliferation assay with A-431 cells; details: read-out: Activity on A-431: IC50, DMEM medium, 10% FBS
[5] = tested on: HEP-G2 cells; experiment: alamarBlue proliferation assay with HEP-G2 cells; details: read-out: Activity on HEP-G2: IC50, RPMI 1640 medium, 10% FBS
[6] = tested on: HPEKp cells; experiment: proliferation assay with human epidermal keratinocyte progenitors (HPEKp), selectivity versus MDA-MB-231; details: read-out: Activity (HPEK): antiproliferative activity on HPEK cells, IC50 category; HPEK cells cultivated in CnT-Prime medium
[7] = tested on: JURKAT cells; experiment: alamarBlue proliferation assay with JURKAT cells; details: read-out: Activity on JURKAT (IC50), day 5
[8] = tested on: REC-1 cells; experiment: alamarBlue proliferation assay with REC-1 cells; details: read-out: Activity on REC-1 (IC50), day 5
Procedure: as §1

[9] = tested on: HL-60 cells; experiment: alamarBlue proliferation assay with HL-60 cells; details: read-out: Activity on HL-60: IC50, RPMI 1640 medium, 10% FBS
[10] = tested on: NB-4 cells; experiment: alamarBlue proliferation assay with NB-4 cells; details: read-out: Activity on NB-4: IC50, RPMI 1640 medium, 10% FBS
[11] = tested on: SW-948 cells; experiment: alamarBlue proliferation assay with SW-948 cells (glucose-free L-15 medium); details: read-out: Activity on SW-948: IC50, Leibovitz's L-15 medium, 10% FBS, 0% CO2
[12] = tested on: NCI-H460 cells; experiment: alamarBlue proliferation assay with NCI-H460 cells; details: read-out: Activity on NCI-H460: IC50, RPMI 1640 medium, 10% FBS
[13] = tested on: A-549 cells; experiment: alamarBlue proliferation assay with A-549 cells; details: read-out: Activity on A-549: IC50, DMEM medium, 10% FBS
[14] = tested on: U-87 MG cells; experiment: alamarBlue proliferation assay with U-87 MG cells; details: read-out: Activity on U-87MG: IC50, EMEM medium, 10% FBS
[15] = tested on: A-375 cells; experiment: alamarBlue proliferation assay with A-375 cells; details: read-out: Activity on A-375: IC50, DMEM medium, 10% FBS
[16] = tested on: RVH-421 cells; experiment: alamarBlue proliferation assay with RVH-421 cells (glucose-free L-15 medium); details: read-out: Activity on RVH-421: IC50, Leibovitz's L-15 medium, 10% FBS, 0% CO2
[17] = tested on: SW-1353 cells; experiment: alamarBlue proliferation assay with SW-1353 cells (glucose-free L-15 medium); details: read-out: Activity on SW-1353: IC50, Leibovitz's L-15 medium, 10% FBS, 0% CO2
[18] = tested on: LL/2 cells; experiment: alamarBlue proliferation assay with LL/2 cells; details: read-out: Activity on LL/2: IC50; LL/2 murine Lewis lung carcinoma cells, DMEM medium, 10% FBS
[19] = tested on: PANC-1 cells; experiment: alamarBlue proliferation assay with PANC-1 cells; details: read-out: Activity on PANC-1: IC50, DMEM medium, 10% FBS
Excerpt: as §2, §3

[20] = tested on: TANQUE cells; experiment: alamarBlue proliferation assay with TANQUE cells; details: read-out: Activity on TANOUE: IC50, RPMI 1640 medium, 10% FBS
[21] = tested on: HCT-116 cells; experiment: alamarBlue proliferation assay with HCT-116 cells; details: read-out: Activity on HCT-116: IC50, McCoy's 5A medium, 10% FBS
[22] = tested on: BHY cells; experiment: alamarBlue proliferation assay with BHY cells; details: read-out: Activity on BHY: IC50, DMEM medium, 10% FBS
[23] = tested on: T-47D cells; experiment: alamarBlue proliferation assay with T-47D cells; details: read-out: Activity on T-47D (IC50), day 5
[24] = tested on: HeLa cells; experiment: alamarBlue proliferation assay with HeLa cells; details: read-out: Activity on HeLa (IC50), day 5
Excerpt: as §2, with “Treatment for maximum proliferation inhibition with the commercial cytotoxic compound (S)-(+)-camptothecin (Fluorochem #M01564) at a concentration of 10 μM was included on each plate for assay quality control. Some of the test compounds of the present invention may have been obtained and applied as their salt forms.” left out

[25] = tested on: 23132/87 cells; experiment: alamarBlue proliferation assay with 23132/87 cells; details: read-out: Activity on 23132/87: IC50, RPMI 1640 medium, 10% FBS
Excerpt: as §2, §3

[26] = tested on: CF21.T cells; experiment: alamarBlue proliferation assay with CF21.T cells; details: read-out: Activity on CF21.T: IC50; CF21.T canine cells, DMEM medium, 10% FBS
[27] = read-out: Activity (MDA): antiproliferative activity on MDA-MB-231 cells, IC50 category, MDA-MB-231 cells cultivated in glucose-free Leibovitz's L-15 medium
[28] = read-out: Activity on MDA-MB-231 (IC50), glucose-free Leibovitz's L-15, 10% FBS, day 5, alamarBlue

Row | SMILES | IC50 [1, 27] [µM] | IC50 [1, 28] [µM] | IC50 [2] [µM] | IC50 [4] [µM] | IC50 [5] [µM] | IC50 [6] [µM] | IC50 [9] [µM] | IC50 [10] [µM] | IC50 [11] [µM] | IC50 [12] [µM] | IC50 [13] [µM] | IC50 [14] [µM] | IC50 [16] [µM] | IC50 [17] [µM] | IC50 [18] [µM] | also measured
1 | O=Cc1cc(C2CCC3(CC2)OCCO3)ccc1Oc1ccc(C(=O)N2CCN(Cc3ccccc3)CC2)cc1 | < 1 | ≤ 0.2 | ≤ 1 | ≤ 5 | ≤ 5 | < 5 |  |  |  |  |  |  |  |  |  | IC50 [3]: ≤ 20 µM
2 | CCCCN1CCN(C(=O)c2ccc(Oc3ccc(C4CCC5(CC4)OCCO5)cc3CO)cc2)CC1 | < 1 | ≤ 1 | ≤ 5 |  | ≤ 5 | > 10 |  |  |  |  |  |  |  |  |  | 
3 | O=C(c1ccc(Oc2ccc(C3CCC4(CC3)OCCO4)cc2CO)cc1)N1CCN(Cc2ccc(S(F)(F)(F)(F)F)cc2)CC1 |  | ≤ 0.2 |  |  |  |  | ≤ 5 | ≤ 0.2 | ≤ 0.2 | ≤ 0.2 | ≤ 0.2 | ≤ 20 | ≤ 0.2 | ≤ 0.2 | ≤ 0.2 | IC50 [7]: ≤ 5 µM; IC50 [8]: ≤ 5 µM; IC50 [15]: ≤ 5 µM
4 | CCCCN1CCN(C(=O)c2ccc(Oc3ccc(C4CCC5(CC4)OCCO5)cc3C=O)cc2)CC1 |  | ≤ 5 | ≤ 5 | ≤ 5 | ≤ 5 |  |  |  |  |  |  |  |  |  |  | IC50 [3]: ≤ 5 µM
5 | O=C(c1ccc(Oc2ccc(C3CCC4(CC3)OCCO4)cc2CO)cc1)N1CCN(Cc2ccccc2)CC1 | < 1 | ≤ 0.2 | ≤ 0.2 | ≤ 0.2 | ≤ 0.2 | < 5 | ≤ 5 |  | ≤ 1 | ≤ 0.2 | ≤ 0.2 | ≤ 1 | ≤ 0.2 | ≤ 0.2 |  | IC50 [19]: ≤ 0.2 µM
6 | O=C(c1ccc(Oc2ccc(C3CCC4(CC3)OCCO4)cc2CO)cc1)N1CCN(Cc2ccc(C(F)(F)F)cc2)CC1 | < 1 | ≤ 0.2 |  | ≤ 0.2 | ≤ 0.2 | < 10 | ≤ 0.2 | ≤ 0.2 | ≤ 0.2 | ≤ 0.2 | ≤ 0.2 | ≤ 5 | ≤ 0.2 | ≤ 0.2 | ≤ 0.2 | IC50 [7]: ≤ 20 µM; IC50 [20]: ≤ 0.2 µM; IC50 [8]: ≤ 5 µM; IC50 [21]: ≤ 0.2 µM; IC50 [22]: ≤ 0.2 µM; IC50 [19]: ≤ 20 µM
7 | COC1CCC(c2ccc(Oc3ccc(C(=O)N4CCN(Cc5ccc(Cl)nc5)CC4)cc3)c(C=O)c2)CC1 (stereo not shown) |  | ≤ 0.2 |  |  | ≤ 0.2 |  |  | ≤ 0.2 |  |  | ≤ 0.2 |  |  |  | ≤ 1 | IC50 [23]: ≤ 1 µM; IC50 [20]: ≤ 0.2 µM; IC50 [24]: ≤ 5 µM; IC50 [25]: ≤ 1 µM; IC50 [21]: ≤ 1 µM; IC50 [22]: ≤ 0.2 µM; IC50 [26]: ≤ 1 µM
